Measured values from publication PMC10323144, “Garbage in, garbage out: how reliable training data improved a virtual screening approach against SARS-CoV-2 MPro” (Frontiers in Pharmacology, 2023).

Target: SARS-CoV-2 MPro (Severe acute respiratory syndrome coronavirus 2, UniProt P0DTD1)
Experiment: MPro activity assay (de-quenching of Edans fluorescence on cleavage of a Dabcyl/Edans peptide)
Conditions: read-out: % activity MPro

SMILES: O=C(Cn1nnc2ccccc21)N(Cc1ccsc1)c1ccc(-c2ccccc2)cc1 [17a]
- activity at 10 µM: 83.8 ± 1.8%
- activity at 25 µM: 88.9 ± 8.4%
